Ab-91 heavy chain CDR variants: yeast mating affinities

All variants were tested on one target, the spike HR2 peptide PDVDLGDISGINAS (SARS-CoV-2).

The variants keep the light chain, the linker and the frameworks of Ab-91 (scFv order VL, a 15-residue (Gly4Ser)3 linker, VH).
VL: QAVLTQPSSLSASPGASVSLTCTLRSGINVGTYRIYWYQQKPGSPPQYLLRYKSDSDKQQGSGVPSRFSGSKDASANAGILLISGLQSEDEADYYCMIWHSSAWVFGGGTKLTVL
VH: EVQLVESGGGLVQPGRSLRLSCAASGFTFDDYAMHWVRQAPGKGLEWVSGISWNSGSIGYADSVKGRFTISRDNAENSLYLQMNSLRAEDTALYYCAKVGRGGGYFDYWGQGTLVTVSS

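AAYL51 was designed without a model: most single CDR substitutions and a random sample of double and triple ones. AlphaSeq pools MATa yeast showing the antibodies with MATalpha yeast showing the peptide. Binding brings cells together so that they mate, and sequencing counts the barcode pairs among the diploids. Read counts were normalised to the haploid input and turned into Kd by a linear fit to BCL2-family pairs of known affinity, for each replicate. There are three technical replicates.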

Each variant is given by its three heavy chain CDRs, as the data file delimits them; those of the parent are GFTFDDYAMH, GISWNSGSIGYADSVK, VGRGGGYFDY. Numbers give log10(Kd / nM), so 0 is 1 nM and 3 is 1 µM. Smaller is tighter. An entry "ND" has no value in the source: the pair was not observed among the diploids in that replicate. This suggests poor binding but is not conclusive. Parent in this assay: reference entry 1.86, copy in this library 0.88.

CDR-H1,CDR-H2,CDR-H3,"replicates, log10 nM",control signals
GFTFDDTYMH,GISWNSGSIGYADSVK,VGRGFGYFDY,ND ND ND,0/9
SFTFDDYAMH,GISWNSGSIDDADSVK,VGRGGGYFDY,ND ND ND,0/9
WFTVDDYAMH,GISWNSGSIGYADSVK,VGRGNGYFDY,ND ND 5.08,2/9 (5.10)
GFHFFDYAMH,GISWNSGSIGYADSHK,VGRGGGYFDY,ND ND ND,0/9
GFTFDDYAMH,GISWNSGSIGYADSVK,VGRGGGYFLY,4.47 ND 4.01,4/9 (4.50)
GFTFDDYAMH,GISWNSGSINEADSYK,VGRGGGYFDY,ND ND ND,1/9 (2.35)
GFTFDDYAMH,GVSWNSGSIGYALSVK,VGRWGGYFDY,ND ND ND,0/9
GFTFDDYAMH,GIPWNSGSIGYADSVK,VGRGGGYFSY,ND ND ND,0/9
GFTFDDYAMD,GISWNSGSIGYADSVK,MGDGGGYFDY,5.35 4.44 5.16,5/9 (5.18)
GFTFDDYAPH,GISWNSGSIGYADSVK,VGRGGGYFDW,ND ND ND,3/9 (5.01)
GSTFDDYAMH,GISWNSGSIGYADSFK,VKRGGGYFDY,ND ND 2.11,0/9
GFTFDDYAMH,GISWSYGSIGYADSVK,LGRGGGYFDY,ND ND ND,1/9 (4.10)
GFTFDDIAMH,GISWNSGDIGYADSVK,VGRGGGYPDY,ND ND ND,2/9 (3.43)
EFTFDDYAMH,GIYWNSGSIGYIDSVK,VGRGGGYFDY,4.35 ND ND,4/9 (4.19)
GFTFDDYAMH,GISWNSGSIGYADSVV,VSRGGGYFDY,3.98 5.27 ND,6/9 (5.13)
GFTFDDYAMH,GISWNSGSINRTDSVK,VGRGGGYFDY,3.50 ND ND,1/9 (3.36)
GFTFDDYNMH,VISWNSGSIGYADSVK,VGRGGGYFDC,ND ND ND,1/9 (2.15)
GFTFDNYAMH,GISWNSGSIGYADSVK,VGRGKGYFDP,ND ND ND,0/9
GFTFDDYAHH,GISWNSGSIGYADSVK,VGRGGGYYDY,4.64 ND ND,5/9 (4.73)
GFTFDDYAMH,GISWNSPSIGYAYSVK,VGRGGGYFDY,ND ND ND,1/9 (2.85)
GFTFDDYAMH,GISWNSGSIGYADSVK,ATRGGGYHDY,5.53 5.66 3.89,5/9 (5.09)
GFTFDNYAMH,GISWDSGSIGYADSVK,VGRPGGYFDY,4.05 ND 4.37,1/9 (4.41)
GFTFDDHAMH,GISWGSGSIGYADSVS,VGRGGGYFDY,4.01 4.24 ND,1/9 (3.07)
GFGFDDYAMH,GISWNSGSIGYADSFW,VGRGGGYFDY,3.84 2.84 3.31,5/9 (4.85)
GFTFDDYASH,GISWNSLSIGYQDSVK,VGRGGGYFDY,ND ND ND,1/9 (3.72)
GFTFDDYAMH,MISWNSGSIGYADSVK,VGRGGGYTSY,ND ND ND,0/9
GFTFDDYAMH,GISWNSGSRGYQPSVK,VGRGGGYFDY,1.90 1.91 1.50,6/9 (5.18)
GFTFDDNAMH,GHSWNSGSIGYADSRK,VGRGGGYFDY,ND 3.56 4.78,1/9 (4.89)
GFTFDDYAMF,GISWNSGSIGYADSVK,VGRGGNYTDY,ND 5.62 4.76,6/9 (4.59)
WFTFDDYAMH,GGSWNSGSIIYADSVK,VGRGGGYFDY,ND 4.57 ND,6/9 (4.65)
FFTFDDYTLH,GISWNSGSIGYADSVK,VGRGGGYFDY,5.18 4.74 4.56,7/9 (4.67)
GFTQDYYAMH,GISWNSGSIGYADSVK,VGYGGGYFDY,4.18 4.57 5.47,3/9 (4.56)
GFTFDDYAMH,GISWFSGSIQYADSVK,VLRGGGYFDY,ND ND ND,1/9 (4.21)
GFTFVDYAMH,GISWNSWSIGYADSVH,VGRGGGYFDY,3.21 3.01 ND,1/9 (2.54)
GFTFDDYIMH,GISWNSGSISYADSVK,VGRGGGRFDY,4.14 ND 3.88,1/9 (4.87)
GFTFDDYAMH,GISWNSGSIGSYDSVK,VGRGGYYFDY,ND 4.07 5.14,2/9 (5.42)
NFTFDDYAMH,GISINSGSIGYADSVK,VGRGGGYFDY,3.12 2.76 ND,0/9
GETFDDYAMH,GISWNSGSIGYADSVK,WGRGGGYFDY,ND ND ND,1/9 (4.57)
GFTFDDYKMH,GISWNSISIGYADSVK,VGRGGGYPDY,ND ND ND,1/9 (3.00)
GKEFDDYAMH,GISWNSGSYGYADSVK,VGRGGGYFDY,ND ND ND,0/9

The 4 strongest on average among those seen in every replicate, once more:

CDR-H1,CDR-H2,CDR-H3,"replicates, log10 nM",control signals
GFTFDDYAMH,GISWNSGSRGYQPSVK,VGRGGGYFDY,1.90 1.91 1.50,6/9 (5.18)
GFGFDDYAMH,GISWNSGSIGYADSFW,VGRGGGYFDY,3.84 2.84 3.31,5/9 (4.85)
GFTQDYYAMH,GISWNSGSIGYADSVK,VGYGGGYFDY,4.18 4.57 5.47,3/9 (4.56)
FFTFDDYTLH,GISWNSGSIGYADSVK,VGRGGGYFDY,5.18 4.74 4.56,7/9 (4.67)

As a blank, each scFv also met three strains without target: over library AAYL51, 21% of these pairings were detected, typically at 4.54 and seldom below 3.26. The control count says in how many pairings with the empty strains this scFv gave a signal, with their mean in brackets.

From the AlphaSeq antibody data of Engelhart et al. 2022 (doi:10.1038/s41597-022-01779-4), copy in the FLAb collection.